The structures appear in SMILES notation. The list shows a part of the results, in another mix than the full data. Records with an inconclusive call do not appear. Activity calls are given as the source filed them. Calls follow the shape of the dose curve; as a rule, active = well fitted inhibition curve with a large enough effect; inconclusive = small, poorly fitted or top-dose-only effect; inactive = no such curve, though single readings can be large or run the other way.

Sequences of proteins named here, by UniProt entry; tags and fusion partners are left off. Residues count along the entry.
UniProt Q96KQ7, 913-1193 limits assumed: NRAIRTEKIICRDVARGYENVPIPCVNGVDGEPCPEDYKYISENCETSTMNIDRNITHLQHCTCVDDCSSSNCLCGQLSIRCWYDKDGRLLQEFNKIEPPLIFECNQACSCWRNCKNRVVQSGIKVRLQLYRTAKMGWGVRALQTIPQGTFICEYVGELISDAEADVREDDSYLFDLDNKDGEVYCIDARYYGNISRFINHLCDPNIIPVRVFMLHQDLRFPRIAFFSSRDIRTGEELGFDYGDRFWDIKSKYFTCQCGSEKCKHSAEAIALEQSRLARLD

The record followed here is PubChem BioAssay AID504332 (National Center for Advancing Translational Sciences (NCATS), 2011).
% is scaled to controls: 0 for no effect and ±100 for the full control effect.

This assay concerns the target Histone-lysine N-methyltransferase EHMT2 (Homo sapiens) (UniProt Q96KQ7). The assay can be described thus: qHTS Assay for Inhibitors of Histone Lysine Methyltransferase G9a. Also: nearly all actives have a fitted effect of over 75% in size. As to conditions: G9a H3K9 monomethylation, AlphaScreen, 2 h; at 59 µM (top of the series). For orientation: Quantitative high-throughput screening tests each substance at several concentrations.
Regarding `CN(CCCl)CCCl`, the activity, negative = inhibition was inactive: -0.907%.
